Measured values reported in PubChem BioAssay (NCI).
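In this assay, cells in 96-well plates receive the compound at five concentrations for 48 hours. Endpoints are linearly interpolated between the surrounding concentrations. GI50 marks 50% less growth. At the TGI there is no net growth.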

Tests used:
Test in all cases: NCI tumour cell line growth inhibition, 48 h
[1] = tested on: SN12C renal
[2] = tested on: RXF 393 renal
[3] = tested on: UACC-62 melanoma
[4] = tested on: EKVX NSCLC
[5] = tested on: A498 renal
[6] = tested on: HOP-62 NSCLC
[7] = tested on: SK-MEL-5 melanoma
[8] = tested on: UACC-257 melanoma
[9] = tested on: ACHN renal
[10] = tested on: RPMI-8226 leukemia
[11] = tested on: OVCAR-8 ovarian
[12] = tested on: HOP-92 NSCLC
[13] = tested on: NCI-H23 lung
[14] = tested on: A549 NSCLC
[15] = tested on: HCC-2998 colon
[16] = tested on: HT29 colon
[17] = tested on: PC-3 prostate
[18] = tested on: CAKI-1 renal
[19] = tested on: CCRF-CEM leukemia
[20] = tested on: TK-10 renal
[21] = tested on: SK-MEL-2 melanoma
[22] = tested on: M14 melanoma
[23] = tested on: SR leukemia
[24] = tested on: MDA-N
[25] = tested on: HL-60(TB) leukemia
[26] = tested on: LOX IMVI melanoma
[27] = tested on: IGROV1 ovarian
[28] = tested on: U251 CNS
[29] = tested on: SNB-19 CNS
[30] = tested on: HCT-116 colon
[31] = tested on: MDA-MB-435
[32] = tested on: OVCAR-4 ovarian
[33] = tested on: MALME-3M melanoma
[34] = tested on: SK-MEL-28 melanoma
[35] = tested on: SW-620 colon
[36] = tested on: T-47D breast
[37] = tested on: SF-268 CNS
[38] = tested on: NCI-H322M lung
[39] = tested on: MDA-MB-231 breast
[40] = tested on: 786-0 renal
[41] = tested on: NCI-H522 lung
[42] = tested on: SNB-75 CNS
[43] = tested on: KM12 colon
[44] = tested on: SF-539 CNS
[45] = tested on: HCT-15 colon
[46] = tested on: OVCAR-5 ovarian
[47] = tested on: UO-31 renal
[48] = tested on: NCI/ADR-RES ovarian
[49] = tested on: NCI-H226 lung
[50] = tested on: BT-549 breast
[51] = tested on: MOLT-4 leukemia
[52] = tested on: COLO 205 colon
[53] = tested on: MCF7 breast
[54] = tested on: DU-145 prostate
[55] = tested on: K-562 leukemia
[56] = tested on: SF-295 CNS
[57] = tested on: NCI-H460 lung
[58] = tested on: OVCAR-3 ovarian
[59] = tested on: HS 578T breast

O=[N+]([O-])c1cc([N+](=O)[O-])c(O)c([N+](=O)[O-])c1.O[C@@H]1CCN2CCC[C@H]12
GI50 [1]: > 100 µM | TGI [1]: > 100 µM | GI50 [2]: > 100 µM | TGI [2]: > 100 µM | GI50 [3]: > 100 µM | TGI [3]: > 100 µM | GI50 [4]: > 100 µM | TGI [4]: > 100 µM | GI50 [5]: > 100 µM | TGI [5]: > 100 µM | GI50 [6]: > 100 µM | TGI [6]: > 100 µM | GI50 [7]: > 100 µM | TGI [7]: > 100 µM | GI50 [8]: > 100 µM | TGI [8]: > 100 µM | GI50 [9]: > 100 µM | TGI [9]: > 100 µM | GI50 [10]: > 100 µM | TGI [10]: > 100 µM | GI50 [11]: > 100 µM | TGI [11]: > 100 µM | GI50 [12]: > 100 µM | TGI [12]: > 100 µM | GI50 [13]: > 100 µM | TGI [13]: > 100 µM | GI50 [14]: > 100 µM | TGI [14]: > 100 µM | GI50 [15]: > 100 µM | TGI [15]: > 100 µM | GI50 [16]: > 100 µM | TGI [16]: > 100 µM | GI50 [17]: > 100 µM | TGI [17]: > 100 µM | GI50 [18]: > 100 µM | TGI [18]: > 100 µM | GI50 [19]: > 100 µM | TGI [19]: > 100 µM | GI50 [20]: > 100 µM | TGI [20]: > 100 µM | GI50 [21]: > 100 µM | TGI [21]: > 100 µM | GI50 [22]: > 100 µM | TGI [22]: > 100 µM | GI50 [23]: > 100 µM | TGI [23]: > 100 µM | GI50 [24]: 98.5 µM | TGI [24]: > 100 µM | GI50 [25]: > 100 µM | TGI [25]: > 100 µM | GI50 [26]: > 100 µM | TGI [26]: > 100 µM | GI50 [27]: > 100 µM | TGI [27]: > 100 µM | GI50 [28]: > 100 µM | TGI [28]: > 100 µM | GI50 [29]: > 100 µM | TGI [29]: > 100 µM | GI50 [30]: > 100 µM | TGI [30]: > 100 µM | GI50 [31]: 49.9 µM | TGI [31]: > 100 µM | GI50 [32]: > 100 µM | TGI [32]: > 100 µM | GI50 [33]: 71.4 µM | TGI [33]: > 100 µM | GI50 [34]: > 100 µM | TGI [34]: > 100 µM | GI50 [35]: > 100 µM | TGI [35]: > 100 µM | GI50 [36]: > 100 µM | TGI [36]: > 100 µM | GI50 [37]: > 100 µM | TGI [37]: > 100 µM | GI50 [38]: > 100 µM | TGI [38]: > 100 µM | GI50 [39]: > 100 µM | TGI [39]: > 100 µM | GI50 [40]: > 100 µM | TGI [40]: > 100 µM | GI50 [41]: 51.5 µM | TGI [41]: > 100 µM | GI50 [42]: > 100 µM | TGI [42]: > 100 µM | GI50 [43]: > 100 µM | TGI [43]: > 100 µM | GI50 [44]: > 100 µM | TGI [44]: > 100 µM | GI50 [45]: > 100 µM | TGI [45]: > 100 µM | GI50 [46]: > 100 µM | TGI [46]: > 100 µM | GI50 [47]: 59 µM | TGI [47]: > 100 µM | GI50 [48]: > 100 µM | TGI [48]: > 100 µM | GI50 [49]: > 100 µM | TGI [49]: > 100 µM | GI50 [50]: > 100 µM | TGI [50]: > 100 µM | GI50 [51]: > 100 µM | TGI [51]: > 100 µM | GI50 [52]: > 100 µM | TGI [52]: > 100 µM | GI50 [53]: > 100 µM | TGI [53]: > 100 µM | GI50 [54]: > 100 µM | TGI [54]: > 100 µM | GI50 [55]: > 100 µM | TGI [55]: > 100 µM

CCCC(C)(O)C1CC23C=CC1(OC)[C@H]1Oc4c(OC)ccc5c4[C@]12CCN(CCN)[C@H]3C5 (stereo not given in full)
TGI [1]: > 100 µM | TGI [2]: 67.9 µM | TGI [3]: 51.4 µM | TGI [4]: > 100 µM | TGI [5]: > 100 µM | TGI [6]: > 100 µM | TGI [9]: > 100 µM | TGI [10]: 48.3 µM | TGI [56]: > 100 µM | TGI [11]: > 100 µM | TGI [12]: > 100 µM | TGI [13]: > 100 µM | TGI [14]: > 100 µM | TGI [15]: 21.4 µM | TGI [16]: 48.6 µM | TGI [17]: > 100 µM | TGI [18]: > 100 µM | TGI [19]: 58.6 µM | TGI [20]: > 100 µM | TGI [21]: 33.7 µM | TGI [22]: 29.3 µM | TGI [23]: 80.7 µM | TGI [24]: > 100 µM | TGI [25]: 65 µM | TGI [26]: 28.5 µM | TGI [27]: > 100 µM | TGI [29]: > 100 µM | TGI [30]: > 100 µM | TGI [31]: 51 µM | TGI [32]: > 100 µM | TGI [33]: 21.4 µM | TGI [35]: > 100 µM | TGI [36]: 36.6 µM | TGI [37]: > 100 µM | TGI [57]: > 100 µM | TGI [58]: > 100 µM | TGI [39]: 94.8 µM | TGI [40]: > 100 µM | TGI [41]: > 100 µM | TGI [43]: > 100 µM | TGI [45]: > 100 µM | TGI [46]: > 100 µM | TGI [47]: > 100 µM | TGI [59]: > 100 µM | TGI [48]: > 100 µM | TGI [50]: > 100 µM | TGI [51]: 87.3 µM | TGI [53]: > 100 µM | TGI [54]: > 100 µM | TGI [55]: 52.6 µM
